# Literature values, collected in patent US7803760B2, “Methods of inducing ovulation” (Merck Serono SA, priority 2000, dated 2010).
# Settings: in patients; cited from earlier work
substance,measurement,value
hCG: glycoprotein hormone biologically and immunologically similar to pituitary LH,half-life,approximately 8 hours
